The values that follow come from patent publication US11999748B2, “Exatecan derivatives, linker-payloads, and conjugates and thereof” (priority 2021, dated 2024).

For data set [1] the following is noted: patients; cited from earlier work.
For data set [2], the system named is MDA-MB-468 cells in co-culture with SK-BR-3. The data set is described as follows: Bystander killing effect in co-culture of SK-BR-3 and MDA-MB-468. It is filed as cell-based. To be noted: co-culture SK-BR-3:MDA-MB-468-Lucia-GFP 4:1, 120 h; GFP fluorescence and luciferase luminescence. How it is done: 3) The cell mixture was prepared, wherein SKBR3: MDA-MB-468-Lucia-GFP=4:1, 5 ml.
Cell plating: 1*10^4 cells/well, 100 μl/well
Test samples: Three final concentrations are prepared from dilution with the cell medium: 50, 10 and 1 nM.
5) Incubate in a 5% CO2 incubator at 37° C. for 120 h.
(1) washed by PBS to remove dead cells, and detected by Cytation3 plate reader;
(2) Biyuntian luciferase reporter gene assay kit: lysed in 37° C. incubator for 10 min using 100 μl lysis buffer. Centrifuged at 2000 rpm for 5 minutes. 100 μl supernatant was taken. 100 μl substrate was added. The chemiluminescence was detected by microplate reader (gain: 200).
Two methods (GFP fluorescence counting and luciferase substrate luminescence method) were used for determination of bystander killing effects (FIG. 4a, 4b and FIG. 5).

Data set [3] concerns JIMT-1 human breast cancer cells (HER2 medium). The data set is described as follows: JIMT-1 human breast cancer xenograft model. It is filed as in vivo. To be noted: JIMT-1 CDX, SCID Beige mice, 5 mg/kg intravenously, FIG. 6. How it is done: 5×10^6 JIMT-1 human breast cancer cells (HER2 medium) were inoculated subcutaneously in the right flank in SCID Beige mice. After 7 days, when tumor volume reached 142 mm^3 on average, the tumor bearing mice were assigned and administrated intravenously of LC1184(8) and other five different conjugates at 5 mg/kg. The tumor volume was measured twice weekly with calipers. […] The conjugate of the present invention achieves great efficacy in lower DAR.
For orientation: Xenograft models place foreign cells or tissue in a host animal.

The subject of data set [4] is Capan-1 human pancreatic cancer cells (HER2 low). The data set is described as follows: Capan-1 human pancreatic cancer xenograft model (1). It is filed as in vivo. To be noted: Capan-1 CDX, BALB/c nude mice, 5 mg/kg intravenously, FIG. 7. On the procedure: 5×10^6 Capan-1 human pancreatic cancer cells (HER2 low) were inoculated subcutaneously in the right flank in BALB/c nude mice to generate xenograft model. After 8 days, when tumor volume reached 178 mm^3 on average, the tumor bearing mice were administrated intravenously of LC1184(8) and other five different conjugates at 5 mg/kg. The tumor volume was measured twice weekly with calipers.

Turning to Enhertu, the “interstitial lung disease caused” value in data set [1] was “more than 10%”.

For the substance LC302-2-4(4), in data set [2], the “bystander killing effect (in words)” value is given as “outstanding bystander killing effects”. Besides, the “efficacy on tumor volume, comparison between conjugates” value in data set [3] is reported as “better efficacy than LC1184(8)”; in data set [4], “comparable efficacy to LC1184(8)”.
